Source: PubChem BioAssay AID624101 (Broad Institute, 2012)
This is a selection; strong and weak results do not stand in their true shares. Active and inactive are the calls of the source. Rule as the data show it: active = inhibition above about 34%; inconclusive = no clear call, values can overlap the other calls; inactive = below about 11%.

By UniProt entry, the sequences of proteins in these tests, tags left out.
UniProt O75874, whole entry, looked up: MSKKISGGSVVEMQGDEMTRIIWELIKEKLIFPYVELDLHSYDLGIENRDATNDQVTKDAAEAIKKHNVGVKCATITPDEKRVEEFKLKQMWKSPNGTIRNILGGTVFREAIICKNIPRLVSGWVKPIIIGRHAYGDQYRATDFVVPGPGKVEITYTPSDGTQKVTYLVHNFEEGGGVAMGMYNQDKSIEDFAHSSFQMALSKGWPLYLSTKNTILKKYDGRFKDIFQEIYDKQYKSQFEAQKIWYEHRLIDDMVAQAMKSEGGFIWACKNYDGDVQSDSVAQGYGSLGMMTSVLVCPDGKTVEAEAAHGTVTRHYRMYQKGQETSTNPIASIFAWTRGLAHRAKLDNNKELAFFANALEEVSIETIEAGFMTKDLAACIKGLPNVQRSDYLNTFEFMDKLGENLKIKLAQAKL

biological target: Isocitrate dehydrogenase [NADP] cytoplasmic (Homo sapiens) (UniProt O75874); assay: PubChem AID 624101; details: IDH1 R132H reductase, diaphorase/resazurin fluorescence, 60 min; at 10 µM; stronger effect = higher value;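 also: 0% = DMSO and 100% = no enzyme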

Structure (SMILES)	inhibition
CN(C(=O)Cc1ccc(Cl)c(Cl)c1)C1CCCCC1N1CCCC1 (configuration not stated)	inactive: -0.583%
CN(C(=O)Cc1ccc(Cl)c(Cl)c1)[C@H]1CCCC[C@@H]1N1CCCC1	inactive: -0.168%
